From PMC12116762, “Topobexin targets the Topoisomerase II ATPase domain for beta isoform-selective inhibition and anthracycline cardioprotection” (Nature Communications, 2025)

Protein sequences, listed by entry. Tags and fused reporters are not part of them. Residues count along the entry.
UniProt Q02880, 2-1626 limits assumed: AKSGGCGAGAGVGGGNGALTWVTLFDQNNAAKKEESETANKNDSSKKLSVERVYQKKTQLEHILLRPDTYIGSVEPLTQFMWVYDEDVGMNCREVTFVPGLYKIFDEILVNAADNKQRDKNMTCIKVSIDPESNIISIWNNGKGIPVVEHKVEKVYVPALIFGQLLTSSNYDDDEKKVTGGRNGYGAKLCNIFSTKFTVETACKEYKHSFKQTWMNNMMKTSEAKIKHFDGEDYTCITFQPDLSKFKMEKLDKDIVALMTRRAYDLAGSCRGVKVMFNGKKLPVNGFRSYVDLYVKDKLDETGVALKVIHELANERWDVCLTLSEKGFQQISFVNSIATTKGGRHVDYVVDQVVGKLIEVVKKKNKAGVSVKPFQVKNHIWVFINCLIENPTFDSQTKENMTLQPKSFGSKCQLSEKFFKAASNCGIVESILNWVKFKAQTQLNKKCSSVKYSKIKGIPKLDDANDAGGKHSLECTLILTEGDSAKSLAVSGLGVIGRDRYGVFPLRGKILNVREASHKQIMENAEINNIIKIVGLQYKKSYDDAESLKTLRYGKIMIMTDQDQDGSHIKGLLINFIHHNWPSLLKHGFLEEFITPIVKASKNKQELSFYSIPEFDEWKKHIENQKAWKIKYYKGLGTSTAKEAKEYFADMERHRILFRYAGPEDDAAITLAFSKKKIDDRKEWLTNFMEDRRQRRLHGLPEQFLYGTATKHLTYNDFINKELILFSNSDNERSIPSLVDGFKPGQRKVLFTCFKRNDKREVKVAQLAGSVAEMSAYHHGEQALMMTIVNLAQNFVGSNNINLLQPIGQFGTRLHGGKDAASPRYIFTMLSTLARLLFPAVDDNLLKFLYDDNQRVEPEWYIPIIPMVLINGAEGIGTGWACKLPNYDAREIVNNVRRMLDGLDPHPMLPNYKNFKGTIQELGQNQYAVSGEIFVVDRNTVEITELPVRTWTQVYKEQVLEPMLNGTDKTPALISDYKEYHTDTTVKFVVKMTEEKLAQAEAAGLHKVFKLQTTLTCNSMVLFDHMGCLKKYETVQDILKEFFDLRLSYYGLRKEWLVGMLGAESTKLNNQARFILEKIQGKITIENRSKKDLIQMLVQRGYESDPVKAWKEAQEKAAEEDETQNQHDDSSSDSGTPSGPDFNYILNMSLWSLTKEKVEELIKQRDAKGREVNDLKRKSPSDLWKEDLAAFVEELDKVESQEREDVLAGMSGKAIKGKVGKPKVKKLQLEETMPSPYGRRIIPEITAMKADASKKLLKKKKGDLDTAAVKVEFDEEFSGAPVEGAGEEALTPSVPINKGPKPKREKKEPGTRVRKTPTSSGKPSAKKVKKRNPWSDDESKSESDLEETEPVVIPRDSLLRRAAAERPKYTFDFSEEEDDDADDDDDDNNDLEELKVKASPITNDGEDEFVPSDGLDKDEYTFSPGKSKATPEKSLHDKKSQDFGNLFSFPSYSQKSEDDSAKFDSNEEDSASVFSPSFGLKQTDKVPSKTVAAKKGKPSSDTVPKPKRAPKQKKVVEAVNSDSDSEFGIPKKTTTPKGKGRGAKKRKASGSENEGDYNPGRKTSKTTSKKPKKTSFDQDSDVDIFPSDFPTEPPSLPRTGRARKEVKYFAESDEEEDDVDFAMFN

Target: T1, TOP2B-DNA covalent complex (Homo sapiens, UniProt Q02880)
T1 construct: endogenous in cells; host or cells: HEK293F
Assay: RADAR assay, etoposide-induced TOP2B-DNA covalent complex in HEK293F cells
Format: cell-based
Conditions: etoposide 5 μM alone; independent replicates
Description: HEK293F cells were plated at 3 × 10^5 cells per well and grown overnight. The next day the wells were incubated with the indicated concentration combinations of topobexin (9) for 30 min followed by etoposide or DMSO control for 60 min (1:1000 ratio for drug dilution). Upon removal of media, cells in each well were immediately lysed with 750 µL DNAzol (Molecular Research Center, Inc.) and the DNA was precipitated by addition of 375 µL of 100% ethanol. This step was then repeated to eliminate protein aggregates. Precipitate from each sample was pelleted via centrifugation at 4 °C and max speed for 5 min. […] The DNA content from each sample was quantified on a nanodrop, and 10 µg of DNA was diluted to a final volume of 200 µL in 8 mM NaOH and 0.1% Tween. […] Western blotting was carried out on an iBind (Thermo Fisher Scientific) and TOP2 proteins were detected using isoform-specific antibody against full length TOP2A (1:250 dilution; HT2A21, Inspiralis) and TOP2B (1:500 dilution; 611493, BD Biosciences) and visualized with anti-rabbit (1:1000 dilution; 926-68071, LI-COR Bio) and anti-mouse (1:1000 dilution; 926-32210, LI-COR Bio) secondary antibodies in iBind running buffer. The blots were imaged on a LI-COR Odyssey Fc and analysed using ImageStudio. […]

TOP2B spot intensity: 127.6
SMILES: COc1cc([C@@H]2c3cc4c(cc3[C@@H](O[C@@H]3O[C@@H]5CO[C@@H](C)O[C@H]5[C@H](O)[C@H]3O)[C@H]3COC(=O)[C@H]23)OCO4)cc(OC)c1O [etoposide, reference compound]
